This note sets out measurements from paper PMC2728155 (Molecular cancer therapeutics, 2009).

This assay concerns phospho-VEGF-receptor and PARP in ACHN cells. As to the kind of experiment: Immunoblot of phospho-VEGF-receptor and PARP cleavage. In kind it is cell-based, human. The following applies: 10 μM, 24 and 48 h. A general note: A western blot detects proteins with antibodies after separation by electrophoresis.

Take `CNC(=O)c1cc(Oc2ccc(NC(=O)Nc3ccc(Cl)c(C(F)(F)F)c3)cc2)ccn1` [Sorafenib]: the “Apoptosis by PARP cleavage” value was “causes apoptosis as is evidenced by PARP cleavage” and the Phospho-VEGF-receptor entry is “attenuates phospho-VEGF”.
